Experiment [1] addresses T1, N-terminal phenylalanine peptide FAAAYP.
T1 construct: Immobilized on the chip
T1 peptide: FAAAYP
In words: peptide-on-chip recognition assay, 500 nM binder.

The target of experiment [2] is T2, FIAWLVK (GLP-1 fragment EFIAWLVK after removal of the N-terminal E).
T2 construct: Degradation intermediate of the immobilized fragment of Glucagon-like peptide 1; the residue range is worked out from 'F recognition'
T2 peptide: FIAWLVK
In words: real-time dynamic sequencing, 100 nM dye-labelled PS610 with hTET and pfuTET.

Experiment [3] deals with T3, WLVK (GLP-1 fragment EFIAWLVK after cleavage up to W).
T3 construct: Degradation intermediate of the immobilized fragment of Glucagon-like peptide 1; the residue range is worked out from 'W recognition'
T3 peptide: WLVK
The description is as above.

B1: PS610 (Bis-atClpS2-V1, Linker 2) (designed binder)
chain: MSDSPVDLKPKPKVKPKLERPKLYKVMLLNDDYTPMSFVTVVLKAVFRMSEDTGRRVMMTAHRFGSAVVVVCERDIAETKAKEATDLGKEAGFPLMFTTEPEEGSAGSAAGSGEFMSDSPVDLKPKPKVKPKLERPKLYKVMLLNDDYTPMSFVTVVLKAVFRMSEDTGRRVMMTAHRFGSAVVVVCERDIAETKAKEATDLGKEAGFPLMFTTEPEEGHHHHHHHHHHGGGSGGGSGGGSGLNDFFEAQKIEWHEGGGSGGGSGGGSGLNDFFEAQKIEWHE
B1: the “fold faster rate of pulsing against monovalent atClpS2-V1” value in experiment [1] turned out to be 2.3 fold. Further, the “fold shorter median interpulse duration against monovalent atClpS2-V1” value in experiment [1] is approximately 5.8 fold. Besides, the binding result in experiment [2] and in experiment [3] was “binds” in each case.

Source of the values: patent US20210364527A1, “Methods and compositions for protein sequencing” (QUANTUM SI, published 2021).
